Experimental data: paper PMC3365014, “Specific Recognition of p53 Tetramers by Peptides Derived from p53 Interacting Proteins” (PLoS ONE, 2012)

Assays:
[1] = system: p53CTD (p53(293–393)), tetrameric recombinant; test: Peptide array screening for binding p53CTD; conditions: Celluspots peptide array; 20 µM p53CTD in 1% milk in TBS-T, overnight 4°C; FL-393 anti-p53 antibody
[2] = system: p53CTD L344A; test: Circular dichroism thermal denaturation; conditions: 20 µM protein, 100 µM peptide, 25 mM phosphate pH 7.2, 25 to 65°C, CD at 222 nm; average of 2 repeats (WS100A4: error of fit); no peptide 49.1±0.4
[3] = pH 7.2

Molecule	Binds to: p53(293–393) [1]	Tm of p53CTD L344A in the presence of peptide [2] [°C]	Solubility (in words) [3]
WS100A4(21–35): non-binding peptide used as a control (WGKEGDKFKLNKSELK; fluorescein (5(6)-carboxyfluorescein) on the N-terminus)	did not interact with p53CTD in the array	48.2±0.1	–
CC(C)[C@H](NC(=O)[C@@H](N)Cc1c[nH]c2ccccc12)C(=O)N[C@H](C(=O)N[C@H](C(=O)N[C@@H](C)C(=O)N[C@@H](CS)C(=O)N[C@@H](Cc1c[nH]cn1)C(=O)N[C@@H](CCC(=O)O)C(=O)N[C@@H](Cc1ccccc1)C(=O)N[C@@H](Cc1ccccc1)C(=O)N[C@@H](CCC(=O)O)C(=O)N[C@@H](Cc1c[nH]cn1)C(=O)N[C@@H](CCC(=O)O)C(N)=O)[C@@H](C)O)[C@@H](C)O [WS100B(81–92)]	–	–	less soluble
